Target: T1, human MATE1 (multidrug and toxin extrusion protein 1) (Homo sapiens, UniProt Q96FL8)
T1 construct: gene SLC47A1; no Fab or nanodisc
T1 sequence (Q96FL8 1-570): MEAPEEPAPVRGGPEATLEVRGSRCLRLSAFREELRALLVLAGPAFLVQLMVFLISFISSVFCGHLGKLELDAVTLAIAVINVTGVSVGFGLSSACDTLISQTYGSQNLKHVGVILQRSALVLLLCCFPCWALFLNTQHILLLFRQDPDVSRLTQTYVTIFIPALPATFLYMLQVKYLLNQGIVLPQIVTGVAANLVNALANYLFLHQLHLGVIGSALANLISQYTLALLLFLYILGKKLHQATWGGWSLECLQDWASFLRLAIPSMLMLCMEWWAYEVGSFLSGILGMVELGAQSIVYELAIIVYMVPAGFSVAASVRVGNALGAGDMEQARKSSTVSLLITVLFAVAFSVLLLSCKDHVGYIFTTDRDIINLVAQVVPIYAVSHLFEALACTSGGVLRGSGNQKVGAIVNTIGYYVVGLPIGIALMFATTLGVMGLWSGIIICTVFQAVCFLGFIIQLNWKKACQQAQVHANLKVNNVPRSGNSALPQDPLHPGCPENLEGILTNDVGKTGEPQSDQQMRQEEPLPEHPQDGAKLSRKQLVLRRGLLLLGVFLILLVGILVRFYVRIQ
Assay: cryo-EM structure ([…] Å); IC50 from competition of […]H-MPP+ uptake in HEK293 cells
Assay type: cell-based

`CN/C(=N/CCSCc1nc[nH]c1C)NC#N` [CMT, cimetidine] showed an IC50 of 2700 ± 700 nM.
